According to ChEMBL document CHEMBL4257222, “Use of small molecule inhibitors targeting eya tyrosine phosphatase” (2016):

Experiment: Selectivity index, ratio of IC50 for inhibition of PTP1B (unknown origin) by p-nitrophenylphosphate assay to IC50 for inhibition of mouse Eya3 catalytic domain (223 to 510 residues) by p-nitrophenylphosphate assay

- Ratio IC50: 4.7 to 6.5
SMILES: CCc1oc2ccccc2c1C(=O)c1cc(Br)c(O)c(Br)c1 [BENZBROMARONE]
